Biological target: Mu-type opioid receptor (Rattus norvegicus, UniProt P33535)
Test: Binding affinity to mu-opioid receptor of rat brain using [3H]DAMGO as radioligand

Protein sequences, listed by entry. Tags and fused reporters are not part of them.
UniProt P33535, whole entry: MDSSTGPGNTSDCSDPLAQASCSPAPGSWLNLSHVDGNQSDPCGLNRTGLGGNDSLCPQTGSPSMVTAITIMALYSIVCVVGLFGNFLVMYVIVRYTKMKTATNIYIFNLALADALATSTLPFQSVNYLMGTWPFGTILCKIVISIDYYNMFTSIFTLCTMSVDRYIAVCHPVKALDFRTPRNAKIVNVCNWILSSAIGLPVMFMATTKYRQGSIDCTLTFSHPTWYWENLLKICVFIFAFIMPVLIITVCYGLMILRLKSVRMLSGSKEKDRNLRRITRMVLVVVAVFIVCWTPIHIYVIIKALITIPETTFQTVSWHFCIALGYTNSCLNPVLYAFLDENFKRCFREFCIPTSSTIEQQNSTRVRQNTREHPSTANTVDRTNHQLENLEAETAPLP

Structure (SMILES): Oc1ccc2c3c1O[C@H]1c4[nH]c5c(c4C[C@@]4(O)[C@@H](C2)N(CC2CC2)CC[C@]314)C[C@@]1(O)[C@H]2Cc3ccc(O)c4c3[C@@]1(CCN2CC1CC1)[C@H]5O4 [NORBINALTORPHIMINE]
- Ki: 65.1 nM
